Data on one compound can be found in patent publication EP2246337A1, “Use of isoxazole derivatives as cyclooxygenase inhibitors” (Universita' degli Studi di Bari, priority 2004, dated 2005).

The chains behind the UniProt entries cited, without tags or fusion partners. Residues count along the entry.
UniProt P23219, 24-599: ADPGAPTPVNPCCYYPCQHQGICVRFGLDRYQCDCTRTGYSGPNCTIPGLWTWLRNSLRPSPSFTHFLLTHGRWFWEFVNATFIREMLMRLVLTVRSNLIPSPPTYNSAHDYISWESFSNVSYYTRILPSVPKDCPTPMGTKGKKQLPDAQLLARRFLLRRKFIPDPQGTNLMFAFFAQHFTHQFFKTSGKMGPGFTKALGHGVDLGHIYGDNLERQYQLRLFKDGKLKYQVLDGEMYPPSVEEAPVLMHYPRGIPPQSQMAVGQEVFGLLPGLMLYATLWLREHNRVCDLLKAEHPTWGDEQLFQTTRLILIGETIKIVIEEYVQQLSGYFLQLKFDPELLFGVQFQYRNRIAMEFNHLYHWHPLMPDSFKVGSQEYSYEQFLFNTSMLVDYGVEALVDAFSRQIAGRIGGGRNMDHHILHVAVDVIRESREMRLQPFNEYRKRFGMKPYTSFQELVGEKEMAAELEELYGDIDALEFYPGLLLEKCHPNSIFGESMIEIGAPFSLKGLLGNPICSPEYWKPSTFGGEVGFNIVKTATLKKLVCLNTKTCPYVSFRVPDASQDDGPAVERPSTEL

The structures appear in SMILES notation.

This assay deals with platelet COX-1 (Homo sapiens, UniProt P23219). Put plainly: COX-1 assay in isolated human whole blood allowed to clot (serum TXB2). As to conditions: read-out: COX-1 IC50, isolated human whole blood clotting 1 hour at 37°C, means of at least two experiments.

Turning to `Cc1onc(-c2ccccc2)c1-c1ccc(S(N)(=O)=O)cc1` [Valdecoxib, 4-(5-methyl-3-phenylisoxazol-4-yl)benzenesulphonamide], the IC50 came to 27 µM.

For orientation: IC50 means the concentration that gives 50% inhibition.
